Reference: ChEMBL document CHEMBL3102716, “High-throughput virtual screening identifies novel N'-(1-phenylethylidene)-benzohydrazides as potent, specific, and reversible LSD1 inhibitors” (J Med Chem, 2013)

Tested on: T47D
Test: cells
Settings: Homo sapiens, 96 h

Structure (SMILES)	IC50 [nM]
O=C(N/N=C/c1ccccc1O)c1ccc(O)cc1	2700
O=C(N/N=C/c1ccccc1O)c1ccc(Br)cc1	96
O=C(N/N=C/c1cc(Cl)ccc1O)c1ccc(O)cc1	821

Further lines, results first:

IC50 [nM]	Structure (SMILES)
615	O=C(N/N=C/c1ccccc1O)c1cccc(Cl)c1
352	C/C(=N\NC(=O)c1ccccc1)c1cc(Cl)ccc1O
971	C/C(=N\NC(=O)c1ccc(O)cc1)c1ccccc1O
